The values that follow are results of earlier work, collected in patent US12678402B2, “Treatment with powdered intranasal epinephrine” (Nasus Pharma Ltd., priority 2020, dated 2026).

Where two headings read alike, the source gives them in different places.

As to `CNC[C@H](O)c1ccc(O)c(O)c1` [Epinephrine], the AUC0-120 min runs as follows: (0.3 mg IM, listed as IM epinephrine) 19.4 ng·min/mL; (5 mg IN, listed as Epinephrine 5 mg IN) 19.4 ± 12.1 ng·min/mL.
